Experimental findings from ChEMBL document CHEMBL1139982, “Carbonic anhydrase activators: the first activation study of the human secretory isoform VI with amino acids and amines” (Bioorg Med Chem, 2007) are described below.

One may read the kcat as the number of substrate molecules converted per active site and unit of time at saturation.

Substrate in series [1]: N[C@@H](Cc1ccccc1)C(=O)O
As to conditions: Homo sapiens; 10 uM.

Substrate in series [2]: N[C@H](Cc1ccccc1)C(=O)O
As to conditions: Homo sapiens; 10 uM.

B1: Carbonic anhydrase 6 (Homo sapiens), P23280 (protein)
chain: MRALVLLLSLFLLGGQAQHVSDWTYSEGALDEAHWPQHYPACGGQRQSPINLQRTKVRYNPSLKGLNMTGYETQAGEFPMVNNGHTVQISLPSTMRMTVADGTVYIAQQMHFHWGGASSEISGSEHTVDGIRHVIEIHIVHYNSKYKSYDIAQDAPDGLAVLAAFVEVKNYPENTYYSNFISHLANIKYPGQRTTLTGLDVQDMLPRNLQHYYTYHGSLTTPPCTENVHWFVLADFVKLSRTQVWKLENSLLDHRNKTIHNDYRRTQPLNHRVVESNFPNQEYTLGSEFQFYLHKIEEILDYLRRALN
For B1, the turnover number (kcat) in series [1] was 10.3 10^5/s; in series [2], 4.9 10^5/s.
